Source: patent US9993454B2, “Solid nanoparticle formulation of water insoluble pharmaceutical substances with reduced Ostwald ripening” (Luminus Biosciences, Inc., priority 2006, dated 2018)

Experiment: Particle size by photon correlation spectroscopy (Malvern Zetasizer)
Assay type: physicochemical
Description: The particle size of the suspension was determined by photon correlation spectroscopy with a Malvern Zetasizer. 2.5 gms of the cryoprotectant trehalose dihydrate (Sigma-Aldrich Co, USA) was dissolved in 10 mL of sterile Type I water and the solution was added to the suspension so that the concentration of trehalose dihydrate in the suspension was in the range of 4-9% by weight. The suspension was sterile-filtered through a 0.22 μm filter (Nalgene, USA). The particle size of the suspension was between 30 and 220 nm. The suspension was frozen below −40° C. and lyophilized. The lyophilized cake was reconstituted prior to further use. One aliquot of the reconstituted solution was stored at 25° C. and the other was stored at 2-6° C. The particle size of the two aliquots were monitored at 24° C. and over a period of eight hours. The particles in both the samples begin to change after 1-2 hours and started precipitating after 4 hours due to Ostwald ripening (FIG. 6). The formulation containing the above composition was designated as unstable due to Ostwald ripening.
(§1) The particle size of the suspension was determined by photon correlation spectroscopy with a Malvern Zetasizer. 2.5 gms of the cryoprotectant trehalose dihydrate (Sigma-Aldrich Co, USA) was dissolved in 10 mL of sterile Type I water and the solution was added to the suspension so that the concentration of trehalose dihydrate in the suspension was in the range of 4-9% by weight. The suspension was sterile-filtered through a 0.22 μm filter (Nalgene, USA). The particle size of the suspension was between 30 and 220 nm. The suspension was frozen below −40° C. and lyophilized. The lyophilized cake was reconstituted prior to further use. One aliquote of the reconstituted solution was stored at 25° C. and the other was stored at 2-6° C. The particle size of the two aliquots were monitored at 24° C. over a period of 8 days (FIG. 7). […] The formulation containing the above composition was designated as stable due to Ostwald ripening.
as §1, with “use” for “use.”, “days.” for “days (FIG. 7).”
The particle size of the suspension was determined by photon correlation spectroscopy with a Malvern Zetasizer. […] The particle size of the two aliquots were monitored at 24° C. over a period of 8 days (FIG. 8). […]
The particle size of the suspension was determined by photon correlation spectroscopy with a Malvern Zetasizer. […]

[1] = 4% albumin after homogenization
[2] = 4% albumin after homogenization with chloroform/ethanol and evaporation

Example 6: 4% human albumin solution homogenized at high pressure with chloroform and ethanol, then evaporated; no drug
volume fraction of peak around 5-8 nm [1]: ~99 % by volume | volume fraction of peak around 120-140 nm [1]: less than 1 % by volume | particle size, first peak [2]: 5-8 nm | particle size, second peak [2]: 120-140 nm | albumin molecules aggregated by denaturation (homogenization in oil-in-water emulsion): 2-3%
